These results are taken from ChEMBL document CHEMBL1147694, “Synthesis and biological activity of conjugates between paclitaxel and the cell delivery vector penetratin” (Bioorg Med Chem Lett, 2006).

The subject of assay [1] is MCF7. Description: Antiproliferative activity against human MCF7 cell line by MTT assay after 72 hrs. It is filed as functional, cell-based. The method, boiled down:
(§1)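 Human tumour cells, MCF7 (breast) and A549 (lung), were exposed to test compounds for 72 h, and growth was read by MTT assay. IC50 is the concentration giving 50% growth inhibition, taken as the mean of three independent experiments.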
For orientation: Tetrazolium assays rely on reduction of a dye to a coloured formazan, in cell work by metabolically active cells.

The subject of assay [2] is A549. In words: Antiproliferative activity against human A549 cell line by MTT assay after 72 hrs. It is filed as functional, cell-based. The method, boiled down:
as §1

In the case of `CC[C@H](C)[C@H](NC(=O)[C@H](CCCCN)NC(=O)[C@@H](NC(=O)[C@H](CCC(N)=O)NC(=O)[C@@H](N)CCCNC(=N)N)[C@@H](C)CC)C(=O)N[C@@H](Cc1c[nH]c2ccccc12)C(=O)N[C@@H](Cc1ccccc1)C(=O)N[C@@H](CCC(N)=O)C(=O)N[C@@H](CC(N)=O)C(=O)N[C@@H](CCCNC(=N)N)C(=O)N[C@@H](CCCNC(=N)N)C(=O)N[C@@H](CCSC)C(=O)N[C@@H](CCCCN)C(=O)N[C@@H](Cc1c[nH]c2ccccc12)C(=O)N[C@@H](CCCCN)C(=O)N[C@@H](CCCCN)C(=O)O`, the IC50 result in assay [1] and in assay [2] was “Not Active” throughout.
